Protein sequences, listed by entry. Tags and fused reporters are not part of them. Residues count along the entry.
UniProt P21589, 27-549 limits assumed: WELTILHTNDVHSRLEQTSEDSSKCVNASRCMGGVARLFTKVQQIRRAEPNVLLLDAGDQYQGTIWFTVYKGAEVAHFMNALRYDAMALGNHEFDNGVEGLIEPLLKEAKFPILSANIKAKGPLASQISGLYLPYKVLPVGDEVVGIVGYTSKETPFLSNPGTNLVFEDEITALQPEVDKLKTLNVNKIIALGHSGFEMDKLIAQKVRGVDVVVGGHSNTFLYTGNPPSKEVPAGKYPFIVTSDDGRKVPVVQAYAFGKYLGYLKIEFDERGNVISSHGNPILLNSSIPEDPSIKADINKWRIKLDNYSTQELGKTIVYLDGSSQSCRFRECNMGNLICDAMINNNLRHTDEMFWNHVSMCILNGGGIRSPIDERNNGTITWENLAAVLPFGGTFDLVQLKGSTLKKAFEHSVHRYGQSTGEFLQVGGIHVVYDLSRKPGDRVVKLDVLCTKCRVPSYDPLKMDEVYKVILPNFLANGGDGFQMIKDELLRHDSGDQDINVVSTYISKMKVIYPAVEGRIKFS

According to US20240024346A1, “CD73 INHIBITORS AND PHARMACEUTICAL USES THEREOF” (RISEN (SUZHOU) PHARMA TECH CO., LTD., priority 2020, published 2024):

Target: CD73 protein (Homo sapiens, UniProt P21589)
Assay: CD73 enzyme inhibition assay (Malachite Green Phosphate Detection Kit)
Settings: read-out: Potency (IC50 class) in CD73 enzyme assay, Tris-HCl pH 7.3

**Q.** How did the IC50 turn out when `O=P(O)(O)CP(=O)(O)OC[C@H]1O[C@@H](n2cnc3c(NC45CC6CC(CC(C6)C4)C5)nc(Cl)nc32)[C@H](O)[C@@H]1O` was run?
**A.** < 10 nM
